Assay [1] deals with T1, ALCAT1 (Homo sapiens (Human), UniProt Q6UWP7). Description: In vitro acyltransferase assay for ALCAT1 inhibitors. Format: biochemical. The conditions noted are these: for IC50: ALCAT1 enzyme activity, triplicates, GraphPad. The source says: The human ALCAT1 protein were expressed in Spodoptera frugiperda (Sf9) insect cells by using a Bac-to-Bac baculovirus expression system (Invitrogen) according to the manufacturer's instruction. High-titer recombinant baculovirus expressing the human ALCAT1 protein was generated by several rounds of viral amplification. The Sf9 cells were typically infected with recombinant baculovirus for 3 days, harvested in ice-cold phosphate-buffered saline (PBS), and homogenized in 20 mm NaCl by going through French press. The total cell lysates were centrifuged at 10,000×g for 1 hours at 4° C. to eliminate the nucleus fraction, followed by ultracentrifugation at 100,000×g to pallet the membrane fraction. The membrane fraction was resuspended in enzymatic buffer that contain 10% glycerol, quantified for protein concentration, aliquoted, and stored at −80° C.
ALCAT1 enzymatic activity was determined by measuring the conversion of monolysocardiolipin (MLCL) to cardiolipin or lysophosphatidylglycerol (LPG) to phosphatidylglycerol (PG) in an enzymatic reaction mixture that contained 50 mm Tris/HCl, pH 7.0, 100 μm lysophospholipids, 25 μm [^14C]acyl-CoA (50 mCi/mmol, American Radiolabeled Chemicals, Inc), and membrane fraction (0.5-2.5 μg) in a total volume of 200 μl. The reaction was incubated at room temperature for 30 min. The lipids were extracted will chloroform, dried, and separated by thin layer chromatography (TLC) with chloroform:hexane:methanol:acetic acid (50:30:10:5, v/v) or chloroform:methanol:water (65:25:4, v/v). After separation, TLC plates were exposed to a Phosphorlmager screen to visualize the radiolabeled products with a Molecular Dynamics Typhoon Scanner (Sunnyvale, Calif.). In some experiments, NBD-CoA was used at 100 μM to replace the [^14C]acyl-CoA in the enzymatic reaction. All quantitative data were expressed as mean±S.E. Statistical analyses for differences between two groups were carried out using a Student's t test.
Compound inhibitors for ALCAT1 enzyme were analyzed by an in vitro enzymatic assay as detailed above. Compound inhibitors were added to the enzymatic mixture at 1-20 μM concentrations before the start of the acyltransferase reaction.
Where multiple measurements were taken this is indicated by a “/” between multiple values.
IC50 values for each compound were analyzed in triplicates, and calculated by GraphPad software.

By UniProt entry, the sequences of proteins in these tests, tags left out.
UniProt Q6UWP7, whole entry, species assumed: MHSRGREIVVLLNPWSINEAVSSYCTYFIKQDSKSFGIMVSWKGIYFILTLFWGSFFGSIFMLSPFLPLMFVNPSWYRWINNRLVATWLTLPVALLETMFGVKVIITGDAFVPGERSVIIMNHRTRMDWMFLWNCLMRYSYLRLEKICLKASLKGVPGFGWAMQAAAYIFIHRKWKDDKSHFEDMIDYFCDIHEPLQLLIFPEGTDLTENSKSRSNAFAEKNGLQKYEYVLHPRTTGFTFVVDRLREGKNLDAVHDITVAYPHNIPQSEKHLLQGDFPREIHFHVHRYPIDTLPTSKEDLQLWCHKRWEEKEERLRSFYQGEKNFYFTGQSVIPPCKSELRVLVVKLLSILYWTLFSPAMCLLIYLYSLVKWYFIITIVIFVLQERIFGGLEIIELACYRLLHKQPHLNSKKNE

In assay [2] the target is T1, ALCAT1. The assay can be described thus: Cell-based assay for ALCAT inhibitor compounds (H9C2 cells). The conditions noted are these: H9C2 vector cell line and H9C2 with stable overexpression of ALCAT1. On the procedure: The assay was performed on the H9C2 vector cell line and H9C2 with stable overexpression of ALCAT1. Materials used in the protocol were CoA, LPG, compounds, chloroform, methanol, 0.9% KCl, 6-well-plates, 1.5 mL tubes, DMEM, FBS, P/S and PBS.
Cells were seeded in 6-well-plates, 8×10^5 cells/well, and cultured at 37° C. in 5% CO2 overnight. Cells were then pretreated with selected compounds (3 μM) for 1 hr and incubated with CoA (5 μM) and LPG (100 μM) with or w/o selected compound (3 μM) for a further 3 hrs.
Cells were washed once with ice-cold PBS, collected in ice-cold PBS and centrifuged at 5000 rpm for 5 min at 4° C. 200 μL of chloroform: methanol (2:1) was added to the cell pellet, which was vortexed to suspend the cells and incubated at RT for 1 hr.
40 μL of 0.9% KCl was added and the sample was vortexed before centrifugation at 10000 rpm for 5 min at RT. The aqueous phase (upper layer) was discarded and the organic phase (lower layer) was loaded to a TLC plate (10 cm×20 cm), 40 μL/sample.
The plates were developed in chloroform: methanol: water (65:25:4) for about 30 min and scanned using a Typhoon Scanner. The bands intensity was analysed using ImageJ and the inhibition activity of the tested compounds was calculated.
Compound inhibitors for ALCAT1 enzyme were analyzed by an in vitro cell-based assay as detailed above.

Setting [3] is: 1 μM compound, in vitro enzymatic assay.

Each structure is given as a SMILES string. Values joined by “and” are separate entries in the source; they are usually repeats but may differ in a detail not shown here. Equal entries are not always repeated.

Regarding `O=C(Nc1cccc(-c2nnc(-c3ccco3)o2)c1)c1ccccc1Cl` [Compound 3], the “% inh @ 10 μM” value in assay [1] (10 μM compound, in vitro enzymatic assay) is 48% and 89%. Also, the IC50 in assay [1] worked out at 890 nM.
On to `O=C(Nc1cccc(-c2nnc(-c3ccco3)o2)c1)c1cccc([N+](=O)[O-])n1` [Compound 346], for which at 1 µM the inhibition in assay [1] (setting [3]) was 86%. Besides, the IC50 in assay [1] was 180 nM.
Take `CCOc1ccc(I)cc1C(=O)Nc1cccc(-c2nnc(-c3ccco3)o2)c1` [Compound 200, 2-Ethoxy-N-(3-(5-(furan-2-yl)-1,3,4-oxadiazol-2-yl)phenyl)-5-iodobenzamide]: the “% inh @ 3 μM” value in assay [2] (3 μM compound) is listed as 31%. This compound had an inhibition at 3 µM in assay [2] (H9c2, 3 μM compound) of 26%.
Take `CCc1ccc(OC)c(C(=O)Nc2cc(-c3nnc(-c4ccco4)o3)ccn2)c1` [Compound 393]: the IC50 in assay [1] was 140 nM.
Turning to `O=C(Nc1cccc(-c2nnc(-c3ccco3)o2)c1)c1ccccc1OCCF` [Compound 274], in assay [1] (setting [3]), the “% inh @ 1 μM” value is recorded as 82% and the inhibition at 1 µM amounted to 77%. This compound also registered an IC50 in assay [1] of 630 nM.
`COc1c(N)cc(Cl)cc1C(=O)Nc1cc(-c2nnc(-c3ccco3)o2)ccc1F` [Compound 354]: the IC50 in assay [1] stood at 610 nM.

For orientation: IC50 means the midpoint of a concentration-inhibition curve. By inhibition is commonly meant the share of the control response that was lost under treatment.
